Laboratory results from paper PMC13307271, “A Highly Selective, Cell-Permeable Fluorescent Probe for Imaging Histone Deacetylase 6 in Live Cells” (Journal of the American Chemical Society, 2026).

Amino acid sequences for entries named in this document (tags omitted).
UniProt Q9UBN7, whole entry: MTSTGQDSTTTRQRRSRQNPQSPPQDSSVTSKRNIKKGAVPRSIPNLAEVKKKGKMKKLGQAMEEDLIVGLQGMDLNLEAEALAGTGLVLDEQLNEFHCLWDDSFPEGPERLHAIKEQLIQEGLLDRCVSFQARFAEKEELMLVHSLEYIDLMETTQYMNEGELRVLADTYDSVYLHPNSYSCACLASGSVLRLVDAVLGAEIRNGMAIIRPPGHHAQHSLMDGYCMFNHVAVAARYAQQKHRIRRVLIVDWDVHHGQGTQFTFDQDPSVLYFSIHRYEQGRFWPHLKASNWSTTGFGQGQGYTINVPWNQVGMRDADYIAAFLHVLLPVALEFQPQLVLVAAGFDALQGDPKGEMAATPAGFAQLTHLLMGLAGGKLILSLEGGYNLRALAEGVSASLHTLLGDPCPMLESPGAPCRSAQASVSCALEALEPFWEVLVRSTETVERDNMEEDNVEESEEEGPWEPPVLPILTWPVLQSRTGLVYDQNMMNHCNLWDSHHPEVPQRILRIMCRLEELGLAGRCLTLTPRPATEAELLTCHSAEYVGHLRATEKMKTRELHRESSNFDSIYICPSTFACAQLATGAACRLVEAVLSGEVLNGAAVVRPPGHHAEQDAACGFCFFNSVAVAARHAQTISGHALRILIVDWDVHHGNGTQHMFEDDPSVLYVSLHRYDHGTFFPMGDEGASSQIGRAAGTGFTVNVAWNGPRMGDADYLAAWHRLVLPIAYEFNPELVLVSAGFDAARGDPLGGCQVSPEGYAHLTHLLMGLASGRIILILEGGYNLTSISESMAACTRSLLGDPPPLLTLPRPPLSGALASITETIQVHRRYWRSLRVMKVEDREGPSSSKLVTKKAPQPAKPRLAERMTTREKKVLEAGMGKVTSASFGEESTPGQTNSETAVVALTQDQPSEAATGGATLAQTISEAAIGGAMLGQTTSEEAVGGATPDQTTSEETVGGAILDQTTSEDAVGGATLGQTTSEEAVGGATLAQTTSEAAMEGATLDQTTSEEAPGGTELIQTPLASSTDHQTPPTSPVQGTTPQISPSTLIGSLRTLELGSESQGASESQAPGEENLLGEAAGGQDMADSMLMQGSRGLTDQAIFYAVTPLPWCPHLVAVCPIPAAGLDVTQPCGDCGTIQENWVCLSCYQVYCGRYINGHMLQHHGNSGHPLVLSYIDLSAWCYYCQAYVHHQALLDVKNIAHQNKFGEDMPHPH

Molecular target: HDAC6 (Homo sapiens, UniProt Q9UBN7)
Assay: HTRF saturation binding assay (terbium donor on protein, SiR acceptor)

Kd: 21 nM
SMILES: CN(C)c1ccc2c(c1)[Si](C)(C)c1cc(N(C)C)ccc1C21OC(=O)c2ccc(C(=O)NCCCN(Cc3ccc(C(=O)NO)cc3)C(=O)Nc3ccccc3)cc21
